Source: US10562843B2 (dated 2020)

Experiments:
human β2-AR [1] = biological target: T1, human β2-AR (Homo sapiens, UniProt P07550)
human β2-AR [2] = biological target: T1, human β2-AR; assay: biochemical

Row | SMILES | Ki β1/Ki β2 (human β2-AR [1]) | Kd (human β2-AR [2])
1 | C[C@H](Cc1ccc(N)cc1)NC[C@@H](O)c1cc(O)cc(O)c1.O=C(O)/C=C/C(=O)O (racemic) [(S,R)-3, (S,R)-(+)-5-{2-[2-(4-Aminophenyl)-1-methylethylamino]-1-hydroxyethyl}-1,3-benzenediol Fumarate] | 3 | –
2 | C[C@H](Cc1ccc(N)cc1)NC[C@H](O)c1cc(O)cc(O)c1.O=C(O)/C=C/C(=O)O [(R,R)-3, (R,R)-(−)-5-{2-[2-(4-Aminophenyl)-1-methylethylamino]-1-hydroxyethyl}-1,3-benzenediol Fumarate] | 9 | –
3 | C[C@@H](Cc1ccc(N)cc1)NC[C@H](O)c1cc(O)cc(O)c1.O=C(O)/C=C/C(=O)O [(R,S)-3, (R,S)-(−)-5-{2-[2-(4-Aminophenyl)-1-methylethylamino]-1-hydroxyethyl}-1,3-benzenediol Fumarate] | 4 | –
4 | CCCCC[C@@H](C)NC[C@@H](O)c1cc(O)cc(O)c1 (racemic) [(S,R)-6, (S,R)-(+)-5-[1-Hydroxy-2-(1-methylhexylamino)ethyl]-1,3-benzenediol Fumarate] | – | ≥ 100 µM

Where a name gives a salt, the structure may show the parent alone.
